# Measured affinities in a library of Ab-14 light chain variants

All variants were tested on one target, the spike HR2 peptide PDVDLGDISGINAS (SARS-CoV-2).

Parent: Ab-14, a human scFv built as VH, a 15-residue (Gly4Ser)3 linker, VL. Only the CDRs of the light chain vary.
VH: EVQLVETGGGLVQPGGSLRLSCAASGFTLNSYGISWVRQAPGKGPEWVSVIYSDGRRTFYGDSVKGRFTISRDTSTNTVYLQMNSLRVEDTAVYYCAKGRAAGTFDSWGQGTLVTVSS
VL: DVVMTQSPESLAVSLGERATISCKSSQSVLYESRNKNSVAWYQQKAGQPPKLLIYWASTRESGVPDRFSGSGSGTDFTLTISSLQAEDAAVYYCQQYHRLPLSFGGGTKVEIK

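The parent was found by panning a naive human phage display library on the peptide. Variants in AAYL50 differ from the parent at up to three CDR positions; double and triple changes were sampled at random. Affinity was read by AlphaSeq, a pooled yeast mating assay with surface-displayed partners. After mating in shaken culture at 30 °C for 16 h, diploids were selected and their barcode pairs sequenced. A regression on co-assayed BCL2-family reference pairs converts the normalised counts of each replicate to an apparent Kd. The assay was run in three technical replicates.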

The parent's light chain CDRs are KSSQSVLYESRNKNSVA, WASTRES, QQYHRLPLS; each variant's own CDRs replace them letter for letter.
Numbers give log10(Kd / nM), so 0 is 1 nM and 3 is 1 µM. Smaller is tighter.
An entry "ND" has no value in the source: the pair was not observed among the diploids in that replicate. This suggests poor binding but is not conclusive.
Parent in this assay: reference entry 0.65, copy in this library 1.68.
As a blank, each scFv also met three strains without target: over library AAYL50, 18% of these pairings were detected, typically at 4.19 and seldom below 2.99. For each scFv, signals with the empty controls are counted beside the result, with their mean in brackets.

| CDR-L1 | CDR-L2 | CDR-L3 | replicates, log10 nM | control signals |
|---|---|---|---|---|
| KSSQSVLYESRNKNSVF | WESTRES | QQYHRNPLS | ND ND ND | 0/9 |
| KSSQSVLYESRNKNSVA | WISTRES | QYYGRLPLS | ND 3.32 ND | 1/9 (3.82) |
| NSSQSRLYEGRNKNSVA | WASTRES | QQYHRLPLS | 2.04 1.60 2.82 | 2/9 (3.90) |
| KSSQSHLYESRNKPSVA | WASTIES | QQYHRLPLS | ND ND ND | 0/9 |
| KSSQSVLYESRNKNSVT | WASTRES | QQYCRLPLS | 4.04 ND ND | 0/9 |
| KSSQSVRYESRNKNSVA | WASTREW | QQYRRLPLS | 1.39 1.60 1.60 | 2/9 (4.11) |
| SSSQSVLYESPNKNSVA | WASTRES | QQYHRLPLS | 1.73 1.74 1.75 | 2/9 (3.96) |
| KDSQSVGYESRNKRSVA | WASTRES | QQYHRLPLS | 0.63 0.86 0.83 | 0/9 |
| KANQSVLYESRNKNSVA | WASTRES | QQYHRMPLS | 0.78 0.87 0.81 | 2/9 (3.48) |
| KSSQSVHQESREKNSVA | WASTRES | QQYHRLPLS | 0.48 0.67 0.57 | 2/9 (3.68) |
| KSSQSTIYESRNKNSVA | WASTRES | QQYHRTPLS | 1.72 2.03 1.91 | 0/9 |
| KSSQSVLYESRNKNSVA | WAWFRES | QQYHRLILS | ND 3.58 5.00 | 3/9 (3.82) |
| KSSQSVLYESRNKNSVA | WASYPES | QQYHRLPLS | 4.07 3.26 4.04 | 6/9 (4.53) |
| KSSQSVLYESRNKNSVA | WASSRRS | QCYHRLPLS | ND 4.42 ND | 3/9 (3.51) |
| KSSQSVLYTSRNKNSVA | WASTRCS | QQAHRLPLS | 3.22 4.10 ND | 3/9 (4.11) |
| KSSQSVLYESRNKNPVA | WASKRES | QQYHRFPLS | ND 1.93 ND | 0/9 |
| KSSQSVLYYSRNKNSVA | WASTRES | QQYHRHPLS | ND 3.95 ND | 2/9 (4.15) |
| KSSQSVLYEHRNKGSVA | TASTRES | QQYHRLPLS | ND ND ND | 0/9 |
| KSSQSCLYESRNKNSVK | WASTREY | QQYHRLPLS | ND ND 4.16 | 0/9 |
| KKSQSVLYESENKNSVA | WASTRES | QQNHRLPLS | 2.07 1.92 1.60 | 0/9 |
| KSSQSVLYESRNKNSVA | WASIRES | FQYHRLPLS | ND ND ND | 2/9 (3.24) |
| KSSQSVLSESDWKNSVA | WASTRES | QQYHRLPLS | 3.13 2.24 3.37 | 1/9 (2.91) |
| KSSQSVLCESRNKNSVI | WWSTRES | QQYHRLPLS | ND ND ND | 4/9 (3.65) |
| KSSQSVVDESRNKNSVA | WASTRES | QQYHRLPLT | ND ND ND | 0/9 |
| KSSQSHLYESRNKNSVA | WAWTRES | VQYHRLPLS | ND ND ND | 0/9 |
| KSSQSVLYESRNKNSVA | WGSFRES | QQYHRLPLS | 1.07 1.31 1.29 | 3/9 (4.25) |
| KSSQSVLYESRNKNSMA | WASDRCS | QQYHRLPLS | 1.19 1.34 1.45 | 4/9 (3.87) |
| KCPQSVLYESRNKNSVA | WASTRES | QQYIRLPLS | 0.65 0.83 0.75 | 0/9 |
| KSSQSVLYESKNKNSVA | FASTRES | QQYHFLPLS | 3.44 2.97 3.46 | 4/9 (5.34) |
| KSSQSVLYESRVKNSVA | VASTRWS | QQYHRLPLS | ND ND ND | 1/9 (4.14) |
| KSSQSILYESRNKNSVA | WANTRES | QQYSRLPLS | 0.70 0.92 0.92 | 4/9 (4.73) |
| KSSQSVLYESRNFNFVA | WASTRHS | QQYHRLPLS | ND ND ND | 0/9 |
| HSSQSVLYESRNKNCVA | WASTVES | QQYHRLPLS | 3.62 2.82 4.05 | 2/9 (3.53) |
| DSSQSVLYESRNKNSVA | SASTRSS | QQYHRLPLS | 0.11 0.44 0.23 | 1/9 (4.60) |
| KHSQSVLYESRNKNSVA | HASTRKS | QQYHRLPLS | 0.51 0.79 0.74 | 1/9 (4.32) |
| KSSQSVLYESRNKNSPA | WASWAES | QQYHRLPLS | ND 3.79 ND | 4/9 (4.23) |
| KSSQSVLYHSRNKNSVA | WASTRES | QQYHRLPLS | 1.07 1.46 1.32 | 4/9 (3.89) |

Source: Engelhart et al. 2022 (doi:10.1038/s41597-022-01779-4), MIT Lincoln Laboratory and A-Alpha Bio; data file from the FLAb repository.